ChEMBL document CHEMBL1137374

Amino acid sequences for entries named in this document (tags omitted). A change or cut given only in a name is not applied to a line headed by its entry.
UniProt P10275: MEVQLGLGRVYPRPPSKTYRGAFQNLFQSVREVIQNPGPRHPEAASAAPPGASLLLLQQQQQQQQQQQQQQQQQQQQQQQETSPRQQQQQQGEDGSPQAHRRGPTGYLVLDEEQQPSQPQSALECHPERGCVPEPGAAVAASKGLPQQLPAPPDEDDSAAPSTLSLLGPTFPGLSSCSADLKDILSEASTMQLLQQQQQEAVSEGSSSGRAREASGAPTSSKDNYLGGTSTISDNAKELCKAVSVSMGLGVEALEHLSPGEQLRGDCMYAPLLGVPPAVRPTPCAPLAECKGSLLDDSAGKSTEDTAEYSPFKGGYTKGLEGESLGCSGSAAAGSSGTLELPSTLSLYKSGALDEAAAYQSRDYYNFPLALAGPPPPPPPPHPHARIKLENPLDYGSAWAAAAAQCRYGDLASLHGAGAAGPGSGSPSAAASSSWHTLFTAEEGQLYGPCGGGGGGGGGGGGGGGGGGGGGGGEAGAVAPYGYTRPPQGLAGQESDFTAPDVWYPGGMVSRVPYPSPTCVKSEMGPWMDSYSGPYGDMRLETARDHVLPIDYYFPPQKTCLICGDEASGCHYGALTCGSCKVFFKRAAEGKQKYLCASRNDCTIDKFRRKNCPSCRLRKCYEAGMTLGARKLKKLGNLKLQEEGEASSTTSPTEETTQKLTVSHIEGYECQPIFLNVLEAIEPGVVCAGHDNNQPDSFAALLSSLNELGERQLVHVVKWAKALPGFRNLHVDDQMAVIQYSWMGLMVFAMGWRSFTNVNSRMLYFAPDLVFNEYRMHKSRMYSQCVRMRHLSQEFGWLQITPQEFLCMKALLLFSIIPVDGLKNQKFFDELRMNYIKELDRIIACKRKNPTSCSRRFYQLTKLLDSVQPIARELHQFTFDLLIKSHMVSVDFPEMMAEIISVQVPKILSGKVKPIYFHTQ

Assays:
Androgen receptor [1] = target: T1, Androgen receptor (Homo sapiens, UniProt P10275)
Androgen receptor [2] = target: T1, Androgen receptor; remark: listed apart in the source
Androgen receptor [3] = target: T1, Androgen receptor; remark: listed apart in the source

In the case of CCCCN(CCCC)c1ccc2[nH]c(=O)cc(C(F)(F)F)c2c1, the IC50 (Androgen receptor [1]) is reported as 29.5 nM.
CN(C)c1ccc2[nH]c(=O)cc(C(F)(F)F)c2c1 gave a Ki (Androgen receptor [2]) of 153 nM, an EC50 (Androgen receptor [3]) greater than 10000 nM and an IC50 (Androgen receptor [1]) of 34 nM.
CCN(c1ccc2nc(O)cc(C(F)(F)F)c2c1)C(C)C was tested, and the EC50 (Androgen receptor [3]) was 2.2 nM and the IC50 (Androgen receptor [1]) was greater than 10000 nM.
Work on CC(C)Nc1ccc2[nH]c(=O)cc(C(F)(F)F)c2c1 yielded a Ki (Androgen receptor [2]) of 58 nM, an EC50 (Androgen receptor [3]) of 106 nM and an IC50 (Androgen receptor [1]) of 16.5 nM.
With Nc1ccc2[nH]c(=O)cc(C(F)(F)F)c2c1 the Ki (Androgen receptor [2]) was greater than 10000 nM, the EC50 (Androgen receptor [3]) was greater than 10000 nM and the IC50 (Androgen receptor [1]) was 26 nM.
Compound CCCNc1ccc2[nH]c(=O)cc(C(F)(F)F)c2c1 has an IC50 (Androgen receptor [1]) of 27.5 nM.
